pKd: −log10 of the molar value.
Key:
[1] = molecular target: T1, CREBBP (Homo sapiens, UniProt Q92793); assay: BROMOscan BromoKdMAX; type: binding
T1 construct: T7 phage strains displaying bromodomains were grown in parallel; purchased DiscoverX (BROMOscan / BromoKdMAX service); host or cells: T7 phage in E. coli host derived from BL21
Procedure: (§1) A BromoKdMAX was performed at DiscoverX.
(§2) The assay principle is the following: BROMOscan™ is a novel industry leading platform for identifying small molecule bromodomain inhibitors. Based on proven KINOMEscan™ technology, BRO-MOscan™ employs a proprietary ligand binding site-directed competition assay to quantitatively measure interactions between test compounds and bromodomains.
(§3) The assay was conducted as follows: For the Bromodomain assays, T7 phage strains displaying bromodomains were grown in parallel in 24-well blocks in an E. coli host derived from the BL21 strain. E. coli were grown to log-phase and infected with T7 phage from a frozen stock (multiplicity of infection=0.4) and incubated with shaking at 32° C. until lysis (90-150 minutes). The lysates were centrifuged (5,000×g) and filtered (0.2 μm) to remove cell debris. […] The liganded beads were blocked with excess biotin and washed with blocking buffer (SeaBlock (Pierce), 1% BSA, 0.05% Tween 20, 1 mM DTT) to remove unbound ligand and to reduce non-specific phage binding. […] Test compounds were prepared as 1000× stocks in 100% DMSO. Kds were determined using an 11-point 3-fold compound dilution series with one DMSO control point. […] The compounds were then diluted directly into the assays such that the final concentration of DMSO was 0.09%. […] The bromodomain concentration in the eluates was measured by qPCR.

Chains of the proteins cited; added tags and fusions are not shown. Residues count along the entry.
UniProt Q92793, 1085-1192 limits assumed: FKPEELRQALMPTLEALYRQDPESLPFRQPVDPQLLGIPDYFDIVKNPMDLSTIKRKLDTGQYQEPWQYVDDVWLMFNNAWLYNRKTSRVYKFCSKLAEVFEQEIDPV
UniProt Q09472, 1049-1156 limits assumed: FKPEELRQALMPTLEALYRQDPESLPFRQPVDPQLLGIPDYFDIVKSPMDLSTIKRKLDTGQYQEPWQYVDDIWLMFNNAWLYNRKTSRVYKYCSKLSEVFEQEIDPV

[2] = molecular target: T2, EP300 (Homo sapiens, UniProt Q09472); assay: BROMOscan BromoKdMAX; type: binding
T2 construct: T7 phage strains displaying bromodomains were grown in parallel; purchased DiscoverX (BROMOscan / BromoKdMAX service); host or cells: T7 phage in E. coli host derived from BL21
Procedure: as §1, §2, §3

## CO[C@H]1CC[C@H](n2c([C@@H]3CCCC(=O)N3c3ccc(F)c(F)c3)nc3cc(-c4c(C)noc4C)ccc32)CC1 [CCS1477]
[1]
  pKd: 9.33
[2]
  pKd: 9.59

Reference: patent US20230255966A1, “A COMBINATION OF A CBP/P300 BROMODOMAIN INHIBITOR AND AN EGFR INHIBITOR FOR USE IN TREATING EGFR-MUTANT NSCLC” (TOLREMO THERAPEUTICS AG, priority 2020, published 2023)
